This is an account of results in BindingDB's records for doi:10.1111/j.1471-4159.1985.tb08803.x (Lundbeck Ais, 1985).

Amino acid sequences for entries named in this document (tags omitted).
UniProt P23977, whole entry: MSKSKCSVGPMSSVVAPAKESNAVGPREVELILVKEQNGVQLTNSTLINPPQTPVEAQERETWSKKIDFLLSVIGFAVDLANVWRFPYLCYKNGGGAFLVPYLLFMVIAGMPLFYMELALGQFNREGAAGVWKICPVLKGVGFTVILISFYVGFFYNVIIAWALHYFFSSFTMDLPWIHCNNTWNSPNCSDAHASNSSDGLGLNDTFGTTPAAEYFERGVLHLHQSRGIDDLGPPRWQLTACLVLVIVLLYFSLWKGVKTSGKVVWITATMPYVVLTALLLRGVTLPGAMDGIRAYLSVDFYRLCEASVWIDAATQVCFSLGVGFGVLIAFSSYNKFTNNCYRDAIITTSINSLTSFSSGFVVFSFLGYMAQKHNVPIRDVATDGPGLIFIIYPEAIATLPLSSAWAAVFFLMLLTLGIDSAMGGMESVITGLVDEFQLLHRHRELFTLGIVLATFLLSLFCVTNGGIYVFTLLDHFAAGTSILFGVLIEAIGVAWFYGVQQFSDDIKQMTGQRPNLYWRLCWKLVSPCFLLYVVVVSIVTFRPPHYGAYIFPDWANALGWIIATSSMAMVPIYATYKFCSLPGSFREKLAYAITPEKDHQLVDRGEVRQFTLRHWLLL
UniProt P31652, whole entry: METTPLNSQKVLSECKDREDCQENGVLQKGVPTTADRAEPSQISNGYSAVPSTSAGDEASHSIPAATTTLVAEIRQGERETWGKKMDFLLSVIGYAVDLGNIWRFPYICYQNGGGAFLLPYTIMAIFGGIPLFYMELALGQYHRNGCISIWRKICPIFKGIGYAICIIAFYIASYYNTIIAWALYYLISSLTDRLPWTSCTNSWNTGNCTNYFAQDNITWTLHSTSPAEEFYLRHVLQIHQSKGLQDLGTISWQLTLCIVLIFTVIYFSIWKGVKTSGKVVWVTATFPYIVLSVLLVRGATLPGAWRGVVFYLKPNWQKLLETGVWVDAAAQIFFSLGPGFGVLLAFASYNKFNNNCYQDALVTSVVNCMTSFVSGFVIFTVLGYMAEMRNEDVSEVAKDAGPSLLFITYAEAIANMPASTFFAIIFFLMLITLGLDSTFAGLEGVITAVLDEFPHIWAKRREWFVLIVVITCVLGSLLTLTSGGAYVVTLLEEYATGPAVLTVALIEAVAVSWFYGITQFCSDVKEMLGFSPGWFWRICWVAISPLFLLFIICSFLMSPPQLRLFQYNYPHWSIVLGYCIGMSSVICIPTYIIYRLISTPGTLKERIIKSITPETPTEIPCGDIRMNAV

Where a name gives a salt, the structure may show the parent alone.

The target in experiment [1] is Sodium-dependent dopamine transporter (Rattus norvegicus, UniProt P23977).
In experiment [2] the target is Sodium-dependent serotonin transporter (Rattus norvegicus, UniProt P31652).

For orientation: Ki means the equilibrium dissociation constant of an inhibitor or competing ligand from its target. With `CN(C)CCCC1(c2ccc(F)cc2)OCc2cc(C#N)ccc21` (stereo not drawn) [CITALOPRAM HYDROBROMIDE], the Ki in experiment [1] is more than 10000 nM. For the compound `CNCCC(Oc1ccccc1OC)c1ccccc1` (stereo not drawn) [3-(2-methoxyphenoxy)-N-methyl-3-phenylpropan-1-amine], the Ki in experiment [2] was 610 nM; in experiment [1], 560 nM.
